In patent US20220152037A1, “USE OF GABAA RECEPTOR MODULATORS FOR TREATMENT OF PAIN” (NEUROCYCLE THERAPEUTIC, INC., priority 2019, published 2022):

Tested on: rat model of fibromyalgia pain (reserpine-induced mechanical allodynia)
Assay: Mechanical allodynia (von Frey 50% response threshold) in reserpine-induced rat model of fibromyalgia pain
Format: in vivo
Settings: oral, 0.3 mg/kg and 3 mg/kg; tested time points 1, 2, 4 hours post-dosing
Text: The purpose of the study is to assess the efficacy of the described compounds in the rat model of fibromyalgia pain.
Animals were assigned to treatment groups based on Day 0 pre-dose von Frey 50% response thresholds so that group means of the mean paw withdrawal latencies were approximately equal. Animals were ranked by pre- and post-reserpine baseline change from lowest to highest, and treatments were assigned randomly within stratified sub-groups according to the total number of treatment groups in the study.
The volume of compound 1 or control article injected was 5 mL/kg. The animals were dosed in sequence based on animal number, so that the distribution of treatment across a given set of animals was not predictable.
Mechanical fibromyalgia-associated allodynia is measured using […] (Stoelting©; Wood Dale, Ill., USA) with varying stiffness (0.04, 0.07, 0.16, 0.4, 1.0, 4.0, and 8.0 g) according to the up-down method 1. […] The 50% response threshold is calculated using the formula: […]
Pain was induced by three daily doses of 1 mg/kg reserpine, and mechanical fibromyalgia-associated allodynia was assessed using von Frey filaments. Mechanical fibromyalgia-associated allodynia was measured prior to and the first reserpine injection and 4 days following the third injection. […]

For `CC(C)(O)c1cnn2c(-c3ccc(F)c(-c4c(F)cccc4C#N)c3)cnc2n1` [Compound 1], the “Reversal of reserpine-induced mechanical fibromyalgia-associated allodynia” value was “significant reversal of mechanical fibromyalgia-associated allodynia”.
